Ab-14 heavy chain CDR variants: yeast mating affinities

Source: Li et al. 2023 (doi:10.1038/s41467-023-39022-2), MIT Lincoln Laboratory and A-Alpha Bio; data file from the FLAb repository.

Binding partner: SARS-CoV-2 spike HR2 peptide, sequence PDVDLGDISGINAS.

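Phage display of a naive human antibody library on the peptide gave the parent. This is the validation round: designs drawn from the data on random variants, tested in the same kind of assay. Group labels follow the data file (Ctrl: baseline library sampled from a position-specific scoring matrix, with some repeated check sequences; Rand: our label for a block that the file lists under HC and that is probably the random mutants of the ten best first-round binders; GP: Gaussian process model; GPLM: also part of the Gaussian process libraries; HC: hill climbing; Gen: genetic algorithm; Gibbs: Gibbs sampling; a sequence that several methods proposed may carry one label only). The assay is AlphaSeq: two haploid yeast populations carry antibody and antigen on their surface. Pairs that bind mate more often; barcode pairs of the diploids are counted by sequencing. The ratio of observed to expected reads was calibrated, replicate by replicate, on BCL2-family standards whose Kd was known from biolayer interferometry. There are six technical replicates.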

Parent scFv Ab-14: VH joined to VL by the linker GGGGSGGGGSGGGGS. Changes lie in the heavy chain CDRs alone.
VH: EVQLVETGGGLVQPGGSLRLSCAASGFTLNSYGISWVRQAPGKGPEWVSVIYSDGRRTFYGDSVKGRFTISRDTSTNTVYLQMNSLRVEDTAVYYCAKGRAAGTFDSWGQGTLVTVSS
VL: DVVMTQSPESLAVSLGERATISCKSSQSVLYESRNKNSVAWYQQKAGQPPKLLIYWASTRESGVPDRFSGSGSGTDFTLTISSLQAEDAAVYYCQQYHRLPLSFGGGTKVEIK

Substitutions are numbered in sequence along the VH above, starting at 1 (not Kabat).
This list holds designs with at most six substitutions.
Kd is apparent (estimated from mating counts) and averaged on the log scale over replicates with a signal. Smaller is tighter.
A pair that was not seen in any replicate is written "nd"; this usually means weak binding, but a binder can also be missed.
Entries are sorted by rising average, undetected variants last.
Three control strains display no target. For all heavy chain designs, 1% of the pairings with them gave a signal, with a median of 120 nM and one signal in twenty below 7.0 nM, so weak values seen in few replicates may be background. The control count says in how many pairings with the empty strains this scFv gave a signal.

The variant T28G G61S R100K A101N [GP_Gibbs] gave 370 pM (2 of 6 replicates; controls 0 of 18). The variant G26K T28N G61A R100Q A101T [GP_Gen] showed 510 pM (1 of 6 replicates; controls 0 of 18). The variant T28S S31D G61T A101T [GPLM_Gen] gave 820 pM (6 of 6 replicates; controls 1 of 18). For T28S G61D R100M A101V [GP_HC], the assay gave 910 pM (6 of 6 replicates; controls 0 of 18). For T28S G61A R100T [GPLM_Gen], the assay gave 970 pM (6 of 6 replicates; controls 0 of 18). With T28E G61A R100N A101V [GPLM_Gibbs] the result was 1.1 nM (6 of 6 replicates; controls 2 of 18). The variant T28Q S31E R100Q A101T S107T [GP_Gen] gave 1.1 nM (6 of 6 replicates; controls 1 of 18). For T28Q S31E R56I [GP_HC], the assay gave 2.4 nM (6 of 6 replicates; controls 2 of 18).

For S31E G61S S63D A101F [GP_HC], the assay gave 2.5 nM (6 of 6 replicates; controls 0 of 18). The variant T28S S53A R100S [GPLM_Gen] gave 2.8 nM (6 of 6 replicates; controls 0 of 18). The variant T28S S31E G61V A101N [GP_Gen] showed 3.4 nM (6 of 6 replicates; controls 0 of 18). With L29I G61S A101T [GPLM_HC] the result was 3.9 nM (6 of 6 replicates; controls 1 of 18). The variant S31E G61M A101I [GPLM_HC] gave 4.4 nM (6 of 6 replicates; controls 0 of 18). For T28N G61K R100E [GPLM_Gibbs], the assay gave 7.4 nM (6 of 6 replicates; controls 0 of 18). For S31E G61T A101E S107E [GP_HC], the assay gave 7.6 nM (6 of 6 replicates; controls 0 of 18). With T28S S31M [GPLM_Gen] the result was 12 nM (6 of 6 replicates; controls 0 of 18).

For T28S T58Q G61T [Ctrl], the assay gave 22 nM (6 of 6 replicates; controls 0 of 18). The variant R56K A101N [GPLM_Gen] gave 57 nM (5 of 6 replicates; controls 0 of 18). With T28P S63D R100M [Ctrl] the result was 570 nM (2 of 6 replicates; controls 1 of 18). For F105S [Ctrl], the assay gave nd (0 of 6 replicates; controls 0 of 18). For S53F G61M [Ctrl], the assay gave nd (0 of 6 replicates; controls 0 of 18). With A101N T104S D106S S107W [Ctrl] the result was nd (0 of 6 replicates; controls 0 of 18). For G26L F27T A101Q T104F D106M [Ctrl], the assay gave nd (0 of 6 replicates; controls 0 of 18). With T28S S31E G61C S107Q [GP_HC] the result was nd (0 of 6 replicates; controls 0 of 18).

For S31E G61T A101Y D106W [GP_HC], the assay gave nd (0 of 6 replicates; controls 0 of 18). For F27D G61S A102G S107Y [Rand], the assay gave nd (0 of 6 replicates; controls 0 of 18). With F27G N30D S31K A101N F105A D106L [Rand] the result was nd (0 of 6 replicates; controls 0 of 18). With G61S A101T D106F [GP_HC] the result was nd (0 of 6 replicates; controls 0 of 18). For G61S S63Q D106S [Ctrl], the assay gave nd (0 of 6 replicates; controls 0 of 18). The variant T28H S63Q R100Q A101T [GPLM_Gen] gave nd (0 of 6 replicates; controls 0 of 18).

A sequence measured in both rounds can read differently, since the two assays cover different ranges.
In the paper, a design with two or fewer of six values counts as a poor binder.
Of ten entries with the parent sequence, four were seen in most replicates (averages 2.2 nM to 240 nM), three in one and three in none, so single entries are noisy.